# Structures can show the parent of a compound that is named as a salt.
# Chains of the proteins cited; added tags and fusions are not shown.
# UniProt Q923Y9, whole entry: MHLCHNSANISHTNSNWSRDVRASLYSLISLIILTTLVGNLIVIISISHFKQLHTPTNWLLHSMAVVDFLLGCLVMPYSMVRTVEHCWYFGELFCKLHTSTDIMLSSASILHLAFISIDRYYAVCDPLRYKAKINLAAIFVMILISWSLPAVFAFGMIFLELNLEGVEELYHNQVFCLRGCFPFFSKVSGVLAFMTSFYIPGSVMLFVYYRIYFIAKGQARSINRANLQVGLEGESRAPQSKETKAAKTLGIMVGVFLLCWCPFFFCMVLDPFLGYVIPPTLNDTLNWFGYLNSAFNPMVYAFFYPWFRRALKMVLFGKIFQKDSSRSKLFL
# UniProt Q923Y8, whole entry: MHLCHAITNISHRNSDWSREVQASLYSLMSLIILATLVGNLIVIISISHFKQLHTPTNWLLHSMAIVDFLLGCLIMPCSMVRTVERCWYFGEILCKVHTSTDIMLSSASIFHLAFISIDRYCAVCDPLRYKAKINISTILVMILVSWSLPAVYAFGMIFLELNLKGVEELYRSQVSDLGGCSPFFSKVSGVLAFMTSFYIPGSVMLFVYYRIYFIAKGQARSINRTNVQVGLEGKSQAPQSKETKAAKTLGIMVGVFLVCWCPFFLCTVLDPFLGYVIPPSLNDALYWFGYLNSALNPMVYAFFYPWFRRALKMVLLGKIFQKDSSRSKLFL
# Experiments:
# rat TAAR1 = rat TAAR1 (Rattus norvegicus (Rat), UniProt Q923Y9); experiment: Radioligand binding assay on rat TAAR1; conditions: rat TAAR1, HEK-293 membranes, second value of cell mouse/rat
# Procedure: (§1) For the construction of expression plasmids the coding sequences of human, rat and mouse TAAR1 were amplified from genomic DNA essentially as described by Lindemann et al.. The Expand High Fidelity PCR System (Roche Diagnostics) was used with 1.5 mM Mg^2+ and purified PCR products were cloned into pCR2.1-TOPO cloning vector (Invitrogen) following the instructions of the manufacturer. PCR products were subcloned into the pIRESneo2 vector (BD Clontech, Palo Alto, Calif.), and expression vectors were sequence verified before introduction in cell lines.
# (§2) HEK293 cells (ATCC #CRL-1573) were cultured essentially as described by Lindemann et al. (2005). For the generation of stably transfected cell lines HEK293 cells were transfected with the pIRESneo2 expression plasmids containing the TAAR coding sequences (described above) with Lipofectamine 2000 (Invitrogen) according to the instructions of the manufacturer, and 24 hrs post transfection the culture medium was supplemented with 1 mg/ml G418 (Sigma, Buchs, Switzerland). After a culture period of about 10 d clones were isolated, expanded and tested for responsiveness to trace amines (all compounds purchased from Sigma) with the cAMP Biotrak Enzyme immunoassay (EIA) System (Amersham) following the non-acetylation EIA procedure provided by the manufacturer.
# Radioligand Binding Assay on Rat TAAR1
# (§3) Membrane Preparation and Radioligand Binding.
# HEK-293 cells stably expressing rat TAAR1 were maintained at 37° C. and 5% CO2 in DMEM high glucose medium, containing fetal calf serum (10%, heat inactivated for 30 min at 56° C.), penicillin/streptomycin (1%), and 375 μg/ml geneticin (Gibco). Cells were released from culture flasks using trypsin/EDTA, harvested, washed twice with ice-cold PBS (without Ca^2+ and Mg^2+), pelleted at 1,000 rpm for 5 min at 4° C., frozen and stored at −80° C. Frozen pellets were suspended in 20 ml HEPES-NaOH (20 mM, pH 7.4) containing 10 mM EDTA and homogenized with a Polytron (PT 6000, Kinematica) at 14,000 rpm for 20 s. The homogenate was centrifuged at 48,000×g for 30 min at 4° C. Subsequently, the supernatant was removed and discarded, and the pellet resuspended in 20 ml HEPES-NaOH (20 mM, pH 7.4) containing 0.1 mM EDTA using the Polytron (20 s at 14,000 rpm). This procedure was repeated and the final pellet resuspended in HEPES-NaOH containing 0.1 mM EDTA and homogenized using the Polytron. Typically, aliquots of 2 ml membrane portions were stored at −80° C. With each new membrane batch the dissociation constant (Kd) was determined via a saturation curve. […] Nonspecific binding was defined as the amount of ^3[H]—(S)-4-[(ethyl-phenyl-amino)-methyl]-4,5-dihydro-oxazol-2-ylamine bound in the presence of 10 μM unlabeled ligand. All compounds were tested at a broad range of concentrations (10 pM to 10 μM) in duplicates. […] The 96 deep well plates were incubated for 1 hr at 4° C. Incubations were terminated by rapid filtration through Unifilter-96 plates (Packard Instrument Company) and glass filters GF/C (Perkin Elmer) presoaked for 1 hr in polyethylenimine (0.3%) and washed 3 times with 1 ml of cold binding buffer. After addition of 45 μl of Microscint 40 (PerkinElmer) the Unifilter-96 plate was sealed and after 1 hr the ratioactivity counted using a TopCount Microplate Scintillation Counter (Packard Instrument Company).
# mouse TAAR1 = mouse TAAR1 (Mus musculus (Mouse), UniProt Q923Y8); experiment: Radioligand binding assay on mouse TAAR1; conditions: mouse TAAR1, HEK-293 membranes, first value of cell mouse/rat
# Procedure: as §1, §2
# Radioligand Binding Assay on Mouse TAAR1
# as §3
# HEK-293 cells stably expressing mouse TAAR1 were maintained at 37° C. and 5% CO2 in DMEM high glucose medium, containing fetal calf serum (10%, heat inactivated for 30 min at 56° C.), penicillin/streptomycin (1%), and 375 μg/ml geneticin (Gibco). Cells were released from culture flasks using trypsin/EDTA, harvested, washed twice with ice-cold PBS (without Ca^2+ and Mg^2+), pelleted at 1,000 rpm for 5 min at 4° C., frozen and stored at −80° C. Frozen pellets were suspended in 20 ml HEPES-NaOH (20 mM, pH 7.4) containing 10 mM EDTA and homogenized with a Polytron (PT 6000, Kinematica) at 14,000 rpm for 20 s. The homogenate was centrifuged at 48,000×g for 30 min at 4° C. Subsequently, the supernatant was removed and discarded, and the pellet resuspended in 20 ml HEPES-NaOH (20 mM, pH 7.4) containing 0.1 mM EDTA using the Polytron (20 s at 14,000 rpm). This procedure was repeated and the final pellet resuspended in HEPES-NaOH containing 0.1 mM EDTA and homogenized using the Polytron. Typically, aliquots of 2 ml membrane portions were stored at −80° C. With each new membrane batch the dissociation constant (Kd) was determined via a saturation curve. […] After addition of 45 μl of Microscint 40 (PerkinElmer) the Unifilter-96 plate was sealed and after 1 hr the ratioactivity counted using a TopCount Microplate Scintillation Counter (Packard Instrument Company).
smiles,measurement,setting,value
"C[C@@H](C(=O)Nc1ccc(C2CCNC2)cc1)c1ccccc1 (mixture of isomers) [Example 29, (R)-2-Phenyl-N—((RS)-4-pyrrolidin-3-yl-phenyl)-propionamide]",Ki,rat TAAR1,0.0501 µM
"C[C@H](C(=O)Nc1ccc(C2CCNC2)cc1)c1ccccc1 (mixture of isomers) [Example 30, (S)-2-Phenyl-N—((RS)-4-pyrrolidin-3-yl-phenyl)-propionamide]",Ki,rat TAAR1,0.0722 µM
"CO[C@H](C(=O)Nc1ccc(C2CCNC2)cc1)c1ccccc1 (mixture of isomers) [Example 48, (S)-2-Methoxy-2-phenyl-N—((RS)-4-pyrrolidin-3-yl-phenyl)-acetamide]",Ki,rat TAAR1,0.613 µM
"CO[C@@H](C(=O)Nc1ccc(C2CCNC2)cc1)c1ccccc1 (mixture of isomers) [Example 49, (R)-2-Methoxy-2-phenyl-N—((RS)-4-pyrrolidin-3-yl-phenyl)-acetamide]",Ki,rat TAAR1,1.68 µM
"CC(C(=O)Nc1ccc(C2CCNC2)cc1)c1ccccc1 (racemic) [Example 25, (RS)-2-Phenyl-N—((RS)-4-pyrrolidin-3-yl-phenyl)-propionamide]",Ki,rat TAAR1,0.0758 µM
"O=C(Nc1ccc(C2CCNC2)cc1)N1CCCCC1 (racemic) [Example 28, (RS)-Piperidine-1-carboxylic acid (4-pyrrolidin-3-yl-phenyl)-amide]",Ki,rat TAAR1,0.473 µM
"CCN1CCC(c2ccc(NC(=O)c3ccc(Cl)cc3)cc2)C1 (racemic) [Example 33, (RS)-4-Chloro-N-[4-(1-ethyl-pyrrolidin-3-yl)-phenyl]-benzamide]",Ki,rat TAAR1,0.0545 µM
"O=C(Nc1ccc(C2CCNC2)cc1)OCCc1ccc(F)cc1 (racemic) [Example 46, (RS)-(4-Pyrrolidin-3-yl-phenyl)-carbamic acid 2-(4-fluoro-phenyl)-ethyl ester]",Ki,rat TAAR1,0.0011 µM
same,Ki,mouse TAAR1,0.0011 µM
"COC(C(=O)Nc1ccc(C2CCNC2)cc1)c1ccc(Br)cc1 (racemic) [Example 50, (RS)-2-(4-Bromo-phenyl)-2-methoxy-N—((RS)-4-pyrrolidin-3-yl-phenyl)-acetamide]",Ki,rat TAAR1,0.122 µM
"COc1cccc(C(C)C(=O)Nc2ccc(C3CCNC3)cc2)c1 (racemic) [Example 67, (RS)-2-(3-Methoxy-phenyl)-N—((RS)-4-pyrrolidin-3-yl-phenyl)-propionamide]",Ki,rat TAAR1,0.0555 µM
"CN1CCOC(c2ccc(NC(=O)c3ccc(Cl)cc3)cc2)C1 (racemic) [Example 80, (RS)-4-Chloro-N-[4-(4-methyl-morpholin-2-yl)-phenyl]-benzamide]",Ki,rat TAAR1,0.742 µM
"CC(C(=O)Nc1ccc(C2CCCNC2)cc1)c1cccc(C(F)(F)F)c1 (racemic) [Example 104, (RS)—N—((RS)-4-Piperidin-3-yl-phenyl)-2-(3-trifluoromethyl-phenyl)-propionamide]",Ki,rat TAAR1,0.0276 µM
same,Ki,mouse TAAR1,0.0454 µM
"O=C(Nc1ccc(C2CCNC2)cc1)OCCc1ccc(OC(F)(F)F)cc1 (racemic) [Example 125, (RS)-(4-Pyrrolidin-3-yl-phenyl)-carbamic acid 2-(4-trifluoromethoxy-phenyl)-ethyl ester]",Ki,mouse TAAR1,0.0003 µM
"O=C(Nc1ccc(C2CCNC2)cc1)OC1Cc2ccccc2C1 (racemic) [Example 129, (RS)-(4-Pyrrolidin-3-yl-phenyl)-carbamic acid indan-2-yl ester]",Ki,rat TAAR1,0.0062 µM
same,Ki,mouse TAAR1,0.004 µM
"O=C(Nc1ccc(COC2CCNC2)cc1)c1ccc(Cl)cc1 (racemic) [Example 145, (RS)-4-Chloro-N-[4-(pyrrolidin-3-yloxymethyl)-phenyl]-benzamide hydrochloride]",Ki,rat TAAR1,0.0013 µM
"O=C(Nc1ccc(C2CNCCO2)cc1)c1ccc(Cl)cn1 (racemic) [Example 148, (RS)-5-Chloro-pyridine-2-carboxylic acid (4-morpholin-2-yl-phenyl)-amide hydrochloride]",Ki,rat TAAR1,0.0049 µM

# — patent US9452980B2, “Substituted benzamides” (Hoffmann-La Roche Inc., priority 2009, dated 2016)
